# From ChEMBL document CHEMBL3885881, “DrugMatrix”
# Experiments:
# Rattus norvegicus [1] = species: Rattus norvegicus; test: DrugMatrix - Regimen: Daily Repeat; format: toxicity, organism-based, Sprague-Dawley; set-up: regimen Daily Repeat, gender Male, age 6-8 weeks; details: in vivo
# Rattus norvegicus [2] = species: Rattus norvegicus; format: toxicity, organism-based, Sprague-Dawley; details: in vivo; for ALBUMIN: po, tissue Plasma, route oral GAVAGE
# [3] = ip, 0 mg/kg, […], tissue Plasma, route intraperitoneal, dose level Control, time 28 day, vehicle 100 % SALINE
# [4] = po, 0 mg/kg, 72 h, tissue Plasma, route oral GAVAGE, dose level Control, time 3 day, vehicle .5 % CMC
# [5] = po, 0 mg/kg, 120 h, tissue Plasma, route oral GAVAGE, dose level Control, time 5 day, vehicle .5 % CMC
# [6] = po, 20 mg/kg, 72 h, tissue Plasma, route oral GAVAGE, dose level Low, time 3 day, vehicle .5 % CMC
# [7] = po, 20 mg/kg, 120 h, tissue Plasma, route oral GAVAGE, dose level Low, time 5 day, vehicle .5 % CMC
# [8] = ip, 2 mg/kg, […], tissue Plasma, route intraperitoneal, dose level High, time 28 day, vehicle 100 % SALINE
# [9] = po, 0 mg/kg, 72 h, tissue Plasma, route oral GAVAGE, dose level Control, time 3 day, […]
# [10] = po, 0 mg/kg, 120 h, tissue Plasma, route oral GAVAGE, dose level Control, time 5 day, […]
compound,measurement,setting,value
COBALTOUS CHLORIDE,CHLORIDE,Rattus norvegicus [1]; [3],105.4 MEQ/L
CN1CCN(C2=Nc3cc(Cl)ccc3Nc3ccccc32)CC1 [CLOZAPINE],ALBUMIN,Rattus norvegicus [1]; [4],4.07 G/DL
same,ALBUMIN,Rattus norvegicus [1]; [5],3.75 G/DL
same,ALBUMIN,Rattus norvegicus [1]; [6],3.57 G/DL
same,ALBUMIN,Rattus norvegicus [1]; [7],3.6 G/DL
same,ALBUMIN,"Rattus norvegicus [1]; po, 95 mg/kg, 72 h, tissue Plasma, route oral GAVAGE, dose level High, time 3 day, vehicle .5 % CMC",3.8 G/DL
same,ALBUMIN,"Rattus norvegicus [1]; po, 95 mg/kg, 120 h, tissue Plasma, route oral GAVAGE, dose level High, time 5 day, vehicle .5 % CMC",3.97 G/DL
C1CCC(C(CC2CCCCN2)C2CCCCC2)CC1 (stereo unspecified) [PERHEXILINE],ALBUMIN,Rattus norvegicus [1]; [4],3.63 G/DL
same,ALBUMIN,Rattus norvegicus [1]; [5],3.73 G/DL
same,ALBUMIN,"Rattus norvegicus [1]; po, 32 mg/kg, 72 h, tissue Plasma, route oral GAVAGE, dose level Low, time 3 day, vehicle .5 % CMC",3.47 G/DL
same,ALBUMIN,"Rattus norvegicus [1]; po, 32 mg/kg, 120 h, tissue Plasma, route oral GAVAGE, dose level Low, time 5 day, vehicle .5 % CMC",3.87 G/DL
same,ALBUMIN,"Rattus norvegicus [1]; po, 320 mg/kg, 72 h, tissue Plasma, route oral GAVAGE, dose level High, time 3 day, vehicle .5 % CMC",3.6 G/DL
same,ALBUMIN,"Rattus norvegicus [1]; po, 320 mg/kg, 120 h, tissue Plasma, route oral GAVAGE, dose level High, time 5 day, vehicle .5 % CMC",3.56 G/DL
CC(C)Cn1cnc2c(N)nc3ccccc3c21 [IMIQUIMOD],ALBUMIN,"Rattus norvegicus [1]; sc, 0 mg/kg, 72 h, tissue Plasma, route subcutaneous, dose level Control, time 3 day, […]",4.08 G/DL
same,ALBUMIN,"Rattus norvegicus [1]; sc, 0 mg/kg, 120 h, tissue Plasma, route subcutaneous, dose level Control, time 5 day, […]",4.08 G/DL
same,ALBUMIN,"Rattus norvegicus [1]; sc, 17 mg/kg, 72 h, tissue Plasma, route subcutaneous, dose level Low, time 3 day, […]",3.57 G/DL
same,ALBUMIN,"Rattus norvegicus [1]; sc, 17 mg/kg, 120 h, tissue Plasma, route subcutaneous, dose level Low, time 5 day, […]",3.43 G/DL
same,ALBUMIN,"Rattus norvegicus [1]; sc, 800 mg/kg, 72 h, tissue Plasma, route subcutaneous, dose level High, time 3 day, […]",3.2 G/DL
same,ALBUMIN,"Rattus norvegicus [1]; sc, 800 mg/kg, 120 h, tissue Plasma, route subcutaneous, dose level High, time 5 day, […]",3.13 G/DL
CN(C)CCCN1c2ccccc2CCc2ccc(Cl)cc21 [CLOMIPRAMINE],GLUCOSE,"Rattus norvegicus [1]; po, 70 mg/kg, 72 h, tissue Plasma, route oral GAVAGE, dose level Low, time 3 day, vehicle 100 % WATER",168.67 mg/dL
CADMIUM DICHLORIDE,CHLORIDE,Rattus norvegicus [1]; [3],105.4 MEQ/L
same,ALBUMIN,Rattus norvegicus [1]; [8],3.47 G/DL
same,PHOSPHORUS,Rattus norvegicus [1]; [8],10.17 mg/dL
same,NEUTROPHIL,"Rattus norvegicus [1]; po, […], 72 h, tissue Blood, route oral GAVAGE, dose 6.6 mg/Kg, dose level Low, time 3 day",9.33%
OCCOCCN1CCN(C2=Nc3ccccc3Sc3ccccc32)CC1 [QUETIAPINE],ALKALINE PHOSPHATASE,"Rattus norvegicus [1]; po, 47 mg/kg, 72 h, tissue Plasma, route oral GAVAGE, dose level Low, time 3 day, vehicle .5 % CMC",406 u/L
same,PHOSPHORUS,"Rattus norvegicus [1]; po, 500 mg/kg, 72 h, tissue Plasma, route oral GAVAGE, dose level High, time 3 day, vehicle .5 % CMC",10.2 mg/dL
CCN(CC)CCNC(=O)c1cc(Cl)c(N)cc1OC [METOCLOPRAMIDE],ALBUMIN,Rattus norvegicus [1]; [4],3.57 G/DL
same,ALBUMIN,Rattus norvegicus [1]; [5],3.72 G/DL
same,ALBUMIN,"Rattus norvegicus [1]; po, 30 mg/kg, 72 h, tissue Plasma, route oral GAVAGE, dose level Low, time 3 day, vehicle .5 % CMC",3.57 G/DL
same,ALBUMIN,"Rattus norvegicus [1]; po, 30 mg/kg, 120 h, tissue Plasma, route oral GAVAGE, dose level Low, time 5 day, vehicle .5 % CMC",3.67 G/DL
CN(C)CCOC(c1ccccc1)c1ccccc1.Cn1c(=O)c2[nH]c(Cl)nc2n(C)c1=O [DIMENHYDRINATE],ABSOLUTE LYMPHOCYTE,"Rattus norvegicus [1]; po, 0 mg/kg, 72 h, tissue Blood, route oral GAVAGE, dose level Control, time 3 day, vehicle .5 % CMC",13494.17 CELLS/uL
same,ABSOLUTE LYMPHOCYTE,"Rattus norvegicus [1]; po, 0 mg/kg, 120 h, tissue Blood, route oral GAVAGE, dose level Control, time 5 day, vehicle .5 % CMC",14614 CELLS/uL
same,ABSOLUTE LYMPHOCYTE,"Rattus norvegicus [1]; po, […], 72 h, tissue Blood, route oral GAVAGE, dose 6.5 mg/Kg, dose level Low, time 3 day, vehicle .5 % CMC",12501 CELLS/uL
same,ABSOLUTE LYMPHOCYTE,"Rattus norvegicus [1]; po, […], 120 h, tissue Blood, route oral GAVAGE, dose 6.5 mg/Kg, dose level Low, time 5 day, vehicle .5 % CMC",17652.33 CELLS/uL
Cc1nc2n(c(=O)c1CCN1CCC(c3noc4cc(F)ccc34)CC1)CCCC2 [RISPERIDONE],MONOCYTE,"Rattus norvegicus [1]; po, 22 mg/kg, 72 h, tissue Blood, route oral GAVAGE, dose level High, time 3 day, vehicle .5 % CMC",2.33%
CN[C@H](CC(C)C)C(=O)N[C@H]1C(=O)N[C@@H](CC(N)=O)C(=O)N[C@H]2C(=O)N[C@H]3C(=O)N[C@H](C(=O)N[C@H](C(=O)O)c4cc(O)cc(O)c4-c4cc3ccc4O)[C@H](O)c3ccc(c(Cl)c3)Oc3cc2cc(c3O[C@@H]2O[C@H](CO)[C@@H](O)[C@H](O)[C@H]2O[C@H]2C[C@](C)(N)[C@H](O)[C@H](C)O2)Oc2ccc(cc2Cl)[C@H]1O [VANCOMYCIN],NEUTROPHIL,"Rattus norvegicus [1]; iv, 25 mg/kg, 72 h, tissue Blood, dose level Low, time 3 day, vehicle 100 % SALINE",9.33%
same,LIPASE,"Rattus norvegicus [1]; iv, 160 mg/kg, 72 h, tissue Plasma, dose level High, time 3 day, vehicle 100 % SALINE",9.33 u/L
same,LIPASE,"Rattus norvegicus [1]; iv, 160 mg/kg, 120 h, tissue Plasma, dose level High, time 5 day, vehicle 100 % SALINE",9.33 u/L
LEAD(IV) ACETATE,ALBUMIN,"Rattus norvegicus [1]; po, 200 mg/kg, 120 h, tissue Plasma, route oral GAVAGE, dose level Low, time 5 day, vehicle 100 % SALINE",4.47 G/DL
CNC[C@H](O)c1ccc(O)c(O)c1 [EPINEPHRINE],GLUCOSE,"Rattus norvegicus [1]; iv, 0.004 mg/kg, 72 h, tissue Plasma, dose level Low, time 3 day, vehicle 100 % SALINE",162 mg/dL
same,GLUCOSE,"Rattus norvegicus [1]; iv, 0.0375 mg/kg, 120 h, tissue Plasma, dose level M1, time 5 day, vehicle 100 % SALINE",179 mg/dL
same,MONOCYTE,"Rattus norvegicus [1]; sc, 0 mg/kg, 120 h, tissue Blood, route mini-PUMP - SUBCUTANEOUS, dose level Control, time 5 day, vehicle 100 % SALINE",1.83%
same,NEUTROPHIL,"Rattus norvegicus [1]; sc, 0 mg/kg, […], tissue Blood, route mini-PUMP - SUBCUTANEOUS, dose level Control, time 14 day, vehicle 100 % SALINE",16.5%
same,MONOCYTE,"Rattus norvegicus [2]; sc, 0 mg/kg, 24 h, tissue Blood, route mini-PUMP - SUBCUTANEOUS, dose level Control, time 1 day, vehicle 100 % SALINE",1.83%
Cc1ccc(C)c(OCCCC(C)(C)C(=O)O)c1 [GEMFIBROZIL],ALBUMIN,Rattus norvegicus [1]; [9],4.12 G/DL
same,ALBUMIN,"Rattus norvegicus [1]; po, 0 mg/kg, […], tissue Plasma, route oral GAVAGE, dose level Control, time 7 day",4.3 G/DL
same,ALBUMIN,"Rattus norvegicus [1]; po, 100 mg/kg, 72 h, tissue Plasma, route oral GAVAGE, dose level Low, time 3 day, […]",4.37 G/DL
same,ALBUMIN,"Rattus norvegicus [1]; po, 100 mg/kg, […], tissue Plasma, route oral GAVAGE, dose level Low, time 7 day",4.63 G/DL
same,ALBUMIN,"Rattus norvegicus [1]; po, 700 mg/kg, 72 h, tissue Plasma, route oral GAVAGE, dose level High, time 3 day, […]",4.38 G/DL
same,ALBUMIN,"Rattus norvegicus [1]; po, 700 mg/kg, […], tissue Plasma, route oral GAVAGE, dose level High, time 7 day",4.77 G/DL
same,ALBUMIN,"Rattus norvegicus [2]; 0 mg/kg, 6 h, vehicle control, dose level Control, time 0.25 day",4.67 G/DL
same,ALBUMIN,"Rattus norvegicus [2]; 0 mg/kg, 24 h, dose level Control, time 1 day",4.33 G/DL
same,ALBUMIN,"Rattus norvegicus [2]; 100 mg/kg, 6 h, dose level Low, time 0.25 day",4.32 G/DL
same,ALBUMIN,"Rattus norvegicus [2]; 100 mg/kg, 24 h, dose level Low, time 1 day",4.52 G/DL
same,ALBUMIN,"Rattus norvegicus [2]; 700 mg/kg, 6 h, dose level High, time 0.25 day",4.52 G/DL
same,ALBUMIN,"Rattus norvegicus [2]; 700 mg/kg, 24 h, dose level High, time 1 day",4.63 G/DL
LIPOPOLYSACCHARIDE E. COLI O55:B5,ALBUMIN,"Rattus norvegicus [1]; iv, 0 mg/kg, 120 h, tissue Plasma, dose level Control, time 5 day, vehicle 100 % SALINE",4.12 G/DL
SODIUM NITROPRUSSIDE,MEAN CORPUSCULAR HEMOGLOBIN CONCENTRATION,"Rattus norvegicus [1]; iv, 6 mg/kg, 72 h, tissue Blood, dose level High, time 3 day, vehicle 100 % SALINE",39.4 G/DL
same,LIPASE,"Rattus norvegicus [1]; iv, […], 72 h, tissue Plasma, dose 0.12 mg/Kg, dose level Low, time 3 day, vehicle 100 % SALINE",9.33 u/L
O=C(CCCN1CCC(O)(c2ccc(Cl)cc2)CC1)c1ccc(F)cc1 [HALOPERIDOL],ERYTHROCYTE COUNT,"Rattus norvegicus [1]; po, 1 mg/kg, 72 h, tissue Blood, route oral GAVAGE, dose level Low, time 3 day, […]",5.37 x10E6/uL
CC/C(=C(\c1ccccc1)c1ccc(OCCN(C)C)cc1)c1ccccc1 [TAMOXIFEN],CHLORIDE,Rattus norvegicus [1]; [9],101 MEQ/L
same,PHOSPHORUS,Rattus norvegicus [1]; [10],10.1 mg/dL
same,SODIUM,Rattus norvegicus [1]; [10],143.65 MEQ/L
CC(C(=O)O)c1ccc2oc(-c3ccc(Cl)cc3)nc2c1 (stereo unspecified) [BENOXAPROFEN],ALBUMIN,Rattus norvegicus [1]; [4],3.63 G/DL
same,ALBUMIN,Rattus norvegicus [1]; [5],3.73 G/DL
same,ALBUMIN,Rattus norvegicus [1]; [6],3.63 G/DL
same,ALANINE AMINOTRANSFERASE,Rattus norvegicus [1]; [7],36.33 u/L
same,ALBUMIN,Rattus norvegicus [1]; [7],3.93 G/DL
same,ALBUMIN,"Rattus norvegicus [1]; po, 89 mg/kg, 72 h, tissue Plasma, route oral GAVAGE, dose level High, time 3 day, vehicle .5 % CMC",3.13 G/DL
same,ALBUMIN,"Rattus norvegicus [1]; po, 89 mg/kg, 120 h, tissue Plasma, route oral GAVAGE, dose level High, time 5 day, vehicle .5 % CMC",2.9 G/DL
OCCN1CCN(CCCN2c3ccccc3Sc3ccc(C(F)(F)F)cc32)CC1 [FLUPHENAZINE],ALBUMIN,Rattus norvegicus [1]; [9],4.15 G/DL
same,ALBUMIN,Rattus norvegicus [1]; [10],4.15 G/DL
same,ALBUMIN,"Rattus norvegicus [1]; po, 22 mg/kg, 72 h, tissue Plasma, route oral GAVAGE, dose level High, time 3 day, […]",4.37 G/DL
same,ALBUMIN,"Rattus norvegicus [1]; po, 22 mg/kg, 120 h, tissue Plasma, route oral GAVAGE, dose level High, time 5 day, […]",4.23 G/DL
same,ALBUMIN,"Rattus norvegicus [1]; po, […], 72 h, tissue Plasma, route oral GAVAGE, dose 2.5 mg/Kg, dose level Low, time 3 day",3.9 G/DL
same,ALBUMIN,"Rattus norvegicus [1]; po, […], 120 h, tissue Plasma, route oral GAVAGE, dose 2.5 mg/Kg, dose level Low, time 5 day",4.27 G/DL
